# A selection: hits, their analogues and other compounds. The true share with any hit is near 0.94%.
# Exocytosis inh – blocks lytic granule exocytosis; 0.66% of 360,000 active; AID 651702; inhibition, % at 10 µM; TALL-104 LAMP-1 surface exposure, flow cytometry; cells stimulated with thapsigargin and PMA;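 active = inhibition above about 55%, limit read from the data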
# PKA-R1A activ – PKA-R1A complex activation; P00514+P68181; PKA-R1A dissociation, Cy5-IP20 fluorescence polarization; scaled: DMSO 0%, 113 µM cGMP 100%; activation, % at 11.4 µM; 0.083% of 340,000 active;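 active = percent activation above the mean of all tested compounds plus 3 SD, cut at about 19% in these data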;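 also: higher means more PKAc released from R1A so a rise in polarization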
# PKA-R2B activ – activates the human PKA-R2B holoenzyme complex | PKA-R2B holoenzyme dissociation, Cy5-IP20 fluorescence polarization; R2B truncated from residue 108, S112A mutant; 0% DMSO only, 100% 113 µM cGMP | P22694+P31323 | activation, % at 11.4 µM | 0.079% of 340,000 active;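 active = activation above a cutoff set at the mean over all compounds plus 3 SD, cut at about 18% in these data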;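 also: higher means more holoenzyme dissociation and a rise in polarization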
# p-CIP stab down – p/CIP protein destabilization | Q05BA5 | decrease of EGFP signal, % at 10 µM | F442A p/CIP-EGFP cells, EGFP fluorescence, 16 h | 0.01% of 290,000 active;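 active = EGFP signal decrease of at least 30% at 10 µM or well 3 SD below plate mean, unless failing retest; inactive = the rest, including hits failing retest or dose response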
# ABCB6 inh 2 – human ABCB6 transporter inhibition | Q9NP58 | fluorescence ratio to DMSO, % at 10 µM | AID 602162 | K562-ABCB6 porphyrin accumulation, flow cytometry, 1 h; active compounds read low | 0.19% of 360,000 active;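 active = fluorescence ratio to DMSO below 75%, the collection mean minus 3 SD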;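 also: signal is porphyrin accumulated inside mitochondria; 100% equals median channel fluorescence of DMSO control wells; lower ratio means ABCB6 inhibition with less porphyrin fluorescence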
# Yeast UUG start – alters start codon recognition fidelity in yeast; S. cerevisiae UUG-firefly luciferase reporter, luminescence/redox ratio; activity score, % at 18.7 µM; hit rate 0.13% among 350,000;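 active = replicate mean at a twofold rise or more, about +100% in these data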;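 also: firefly luciferase made from a UUG start codon reports start codon fidelity; reporter light over untreated wells divided by growth signal over untreated wells; some hits fall short of that in this replicate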
# Exocytosis CP01 – blocks lytic granule exocytosis. shares compounds with Exocytosis inh. TALL-104 cells, LAMP-1 externalization, flow cytometry; stimulated with PMA plus thapsigargin. inhibition, % at 10 µM. 11% of 1,500 active; in the data active = inhibition above about 60%;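 also: 0% = stimulated vehicle wells and 100% = unstimulated wells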
# Starred values were filed as active, the others as inactive; / = not tested or not shown.
# Assay codes: A = Exocytosis inh; B = PKA-R1A activ; C = PKA-R2B activ; D = p-CIP stab down; E = ABCB6 inh 2; F = Yeast UUG start; G = Exocytosis CP01
structure: Cc1ccc(S(=O)(=O)N[C@H]2CC[C@@H](CC(=O)N3CCN(c4ccccc4)CC3)O[C@@H]2CO)cc1
  A: /; B: /; C: /; D: /; E: /; F: 3; G: /

structure: COc1cc(NC(=O)c2cccs2)c(OC)cc1NC(=O)CCC(=O)Nc1cccc2ncccc12
  A: 60*; B: 6; C: -1; D: -18; E: 97; F: /; G: -3

structure: CC(=O)Nc1cccc(-c2cc(NC(C)=O)c3ncc(-c4cccc(C(F)(F)F)c4)n3c2)c1
  A: 17; B: /; C: /; D: /; E: 99; F: -28; G: /

structure: COc1ccc(F)cc1-c1cc(NC(C)=O)c2ncc(-c3cccc(C(F)(F)F)c3)n2c1
  A: 58*; B: /; C: /; D: /; E: 94; F: 2; G: 43

structure: Fc1ccc(Nc2nc(NCc3ccco3)c3ccccc3n2)cc1
  A: 86*; B: -7; C: 5; D: -17; E: 94; F: -18; G: 5

structure: CN1CCN(C(=O)C[C@H]2CC[C@H]3[C@@H](COC[C@H](O)CN3Cc3ccc4c(c3)OCO4)O2)CC1
  A: /; B: /; C: /; D: /; E: /; F: -1; G: /

structure: CC1CC(C)CN(C(=O)c2ccc(-c3ccc([N+](=O)[O-])cc3)o2)C1 (stereo not drawn)
  A: 74*; B: -11; C: 1; D: /; E: 103; F: -3; G: -12

structure: Cc1ccc(C(C)C)c(OCCNCc2ccccc2)c1
  A: 83*; B: 4; C: 7; D: 3; E: 99; F: -4; G: -12

structure: COc1ccccc1C(=O)Nc1ccccc1SC(=O)c1ccccc1OC
  A: 91*; B: -1; C: 2; D: 6; E: 96; F: -24; G: 33

structure: COc1ccc(S(=O)(=O)N(C)C[C@H]2Oc3c(NC(=O)Nc4ccc(C(F)(F)F)cc4)cccc3C(=O)N([C@@H](C)CO)C[C@H]2C)cc1
  A: /; B: /; C: /; D: /; E: /; F: -1; G: /

structure: C[C@H](c1ccccc1)N1C[C@H](COCc2ccccc2)Oc2cc(N3CC[C@H](N(C)C)C3)ccc2S1(=O)=O
  A: 68*; B: /; C: /; D: /; E: 99; F: /; G: 29

structure: C[C@@H](c1ccccc1)N1C[C@H](COCc2ccccc2)Oc2cc(N3CC[C@@H](N(C)C)C3)ccc2S1(=O)=O
  A: 50; B: /; C: /; D: /; E: 96; F: /; G: /

structure: COc1c2ccoc2c(OC[C@@H](O)C(C)(C)O)c2oc(=O)ccc12
  A: 63*; B: -2; C: 7; D: -4; E: 104; F: -20; G: -5

structure: C/C=C/c1ccc2c(c1)O[C@H](CN(C)Cc1ccncc1)[C@@H](C)CN([C@@H](C)CO)S2(=O)=O
  A: /; B: /; C: /; D: /; E: /; F: -5; G: /

structure: COc1ccc(CC(=O)Nc2cc(Cl)ccc2N2CCCC2)cc1
  A: 67*; B: -6; C: -6; D: 4; E: 100; F: -5; G: -4

structure: O=C(Nc1ccccc1N1CCCCC1)c1cccc(OC(F)F)c1
  A: 99*; B: -6; C: -6; D: -4; E: 104; F: 21; G: -14

structure: COc1cccc(C(=O)Nc2ccccc2N2CCCC2)c1
  A: 6; B: 1; C: 5; D: 5; E: 85; F: -11; G: /

structure: COc1ccc(Cl)cc1C(=O)Nc1ccccc1N1CCCCC1
  A: 57*; B: 1; C: -4; D: -2; E: 99; F: -5; G: -4

structure: C[C@@H]1CN([C@@H](C)CO)C(=O)c2cc(NS(=O)(=O)c3cn(C)cn3)ccc2O[C@H]1CN(C)CC1CCCCC1
  A: /; B: /; C: /; D: /; E: /; F: -2; G: /

structure: C[C@H]1CN([C@@H](C)CO)C(=O)c2cc(-c3ccc(C#N)cc3)cnc2O[C@@H]1CN(C)Cc1ccccn1
  A: /; B: /; C: /; D: /; E: /; F: -26; G: /

structure: C[C@H](CO)N1C[C@H](C)[C@@H](CN(C)CC2CC2)Oc2cc(-c3cncnc3)ccc2S1(=O)=O
  A: /; B: /; C: /; D: /; E: /; F: -12; G: /

structure: COc1ccc(C(=O)CCN2CCCCCC2)cc1
  A: 0; B: 13; C: 0; D: -11; E: 98; F: -9; G: /

structure: CC(C)Oc1ccc(C(=O)CCN2CCOCC2)cc1
  A: 59*; B: -11; C: -5; D: /; E: 94; F: /; G: -11

structure: CCOc1ccc(C(=O)CCN2CCCCC2)cc1
  A: 93*; B: -6; C: 0; D: -24; E: 111; F: /; G: -11

structure: CC(C)Oc1ccc(C(=O)CCN2CCCCC2)cc1
  A: 95*; B: -5; C: 2; D: -4; E: 89; F: -11; G: 5

# Molecules shown so far containing a Cl atom, in the order listed:
# Assay codes: A = Exocytosis inh; B = PKA-R1A activ; C = PKA-R2B activ; D = p-CIP stab down; E = ABCB6 inh 2; F = Yeast UUG start; G = Exocytosis CP01
structure: COc1ccc(CC(=O)Nc2cc(Cl)ccc2N2CCCC2)cc1
  A: 67*; B: -6; C: -6; D: 4; E: 100; F: -5; G: -4

structure: COc1ccc(Cl)cc1C(=O)Nc1ccccc1N1CCCCC1
  A: 57*; B: 1; C: -4; D: -2; E: 99; F: -5; G: -4

# Continuation:
SMILES,Exocytosis inh,PKA-R1A activ,PKA-R2B activ,p-CIP stab down,ABCB6 inh 2,Yeast UUG start,Exocytosis CP01
CCCCCOc1ccc(C(=O)CCN2CCOCC2)cc1,7,-4,-6,-14,98,-18,/
CCCOc1ccc(C(=O)CCN2CCN(C(=O)OCC)CC2)cc1,60*,2,11,-12,98,6,-13
COc1ccc(NC(=O)N(C)C[C@@H]2Oc3c(NC(=O)Nc4c(C)noc4C)cccc3C(=O)N([C@@H](C)CO)C[C@H]2C)cc1,/,/,/,/,/,-5,/
C/C=C/c1ccc2c(c1)O[C@@H](CN(C)C(=O)COC)[C@@H](C)CN([C@H](C)CO)S2(=O)=O,/,/,/,/,/,-15,/
C[C@@H]1CN([C@H](C)CO)C(=O)Cc2cc(NS(=O)(=O)c3cccs3)ccc2O[C@H]1CN(C)CC1CC1,/,/,/,/,/,15,/
CCN(CC)CCCNc1ccc(-c2nnc(-c3ccc(OCC(C)C)cc3)o2)cn1,62*,-4,-9,-15,104,-7,95*
CC(C)COc1ccc(-c2nnc(-c3ccco3)o2)cc1,5,4,0,-6,91,-46,/
O=C(C[C@@H]1C[C@H]2c3cc(NC(=O)NC4CCCCC4)ccc3O[C@H]2[C@H](CO)O1)NCC1CC1,/,/,/,/,/,9,/
CN(C)c1ccc(C(C(=O)NCC2CCCO2)N(C(=O)c2snc(C(N)=O)c2N)c2ccc3c(c2)OCO3)cc1 (stereo not drawn),72*,-3,3,-15,97,18,-6
CC(=O)N(C)C[C@@H]1Oc2cc(C#Cc3ccccn3)ccc2S(=O)(=O)N([C@@H](C)CO)C[C@@H]1C,/,/,/,/,/,16,/
C[C@@H]1CN([C@H](C)CO)C(=O)Cc2cc(NS(=O)(=O)c3cn(C)cn3)ccc2O[C@@H]1CN(C)C(=O)Nc1ccc2c(c1)OCO2,/,/,/,/,/,-22,/
CCOC(=O)c1c(-c2ccccc2)csc1NC(=O)c1cccc(N2C(=O)CCC2=O)c1,86*,-3,-4,-6,94,-18,0
C[C@H](CO)N1C[C@H](C)[C@H](CN(C)C(=O)CN(C)C)Oc2ncc(C#Cc3ccncc3)cc2C1=O,/,/,/,/,/,-7,/
Cc1cc2c(cc1C)CSC(c1c(O)ccc3ccccc13)SC2,76*,-3,-14,4,90,-14,11
CCN(CC)c1cc(C)c2cc(NC(=O)c3cccs3)ccc2n1,67*,-5,4,9,101,-5,-13
CO[C@H]1CN(C)C(=O)c2cc(NC(=O)c3ccc(F)cc3)ccc2OC[C@@H](C)N(C(C)=O)C[C@H]1C,/,/,/,/,/,12,/
C[C@@H]1CN([C@H](C)CO)C(=O)c2cccc(NC(=O)c3cnccn3)c2O[C@H]1CN(C)S(C)(=O)=O,/,/,/,/,/,-3,/
COc1ccc(C(CNC(=O)Cc2ccc(-c3ccccc3)cc2)N(C)C)cc1 (stereo not drawn),62*,1,-6,-15,99,1,-14
O=C(c1cccc(C(F)(F)F)c1)N1CCC(=O)N(C(CO)Cc2ccccc2)CC1 (stereo not drawn),80*,-10,-19,/,103,11,-5

# By substructure: the compounds so far containing two or more sulfur atoms.
SMILES,Exocytosis inh,PKA-R1A activ,PKA-R2B activ,p-CIP stab down,ABCB6 inh 2,Yeast UUG start,Exocytosis CP01
C[C@@H]1CN([C@H](C)CO)C(=O)Cc2cc(NS(=O)(=O)c3cccs3)ccc2O[C@H]1CN(C)CC1CC1,/,/,/,/,/,15,/
Cc1cc2c(cc1C)CSC(c1c(O)ccc3ccccc13)SC2,76*,-3,-14,4,90,-14,11
